Test: In vitro effective concentration tested on HEK293 cells co-transfected with ferret Dopamine receptor D2 using FLIPR assay

EC50: 1.8 nM
Structure (SMILES): CN1CCc2cccc3c2[C@H]1Cc1ccc(O)c(O)c1-3 [APOKYN]

Source: BindingDB's records for doi:10.1021/jm030505a (Abbott Laboratories, 2004)
